Positions of bridges follow the written chain, without caps; N, C: chain ends. Residues, ends and D or L forms follow the SMILES beside them.
Target: T1, HER2 receptor (Homo sapiens, UniProt P04626)
T1 construct: Recombinant purified HER2 receptor composed of the ectodomain of HER2 fused to the Fc of human IgG; purchased Xcyte Therapeutics, Seattle, Wash; (provided by Dr. Che Law; a gift, not a catalogue product)
Assay: Biacore (surface plasmon resonance) binding of peptides to immobilized HER2
Excerpt: Binding of AHNP has been studies by means of surface plasmon resonance (Biacore) technology. In Biacore experiments, one of the interacting molecules (termed the ligand) is immobilized on the sensor surface, and the other interactant (termed the analyte) is continuously flown over that surface in a micro-flow cell. The interaction between the ligand and the analyte are monitored using a light source that is reflected at the immobilized chip. Binding of the analyte to the immobilized ligand changes the resonance angle of the reflected light due to changes in the refractive index of the surface. The response is plotted in real time in the form of sensorgram curves. The advantage with this approach is its sensitivity, ease of use, and ability to perform experiments with few microgram quantities of proteins and peptides. In addition, the kinetic binding studies reveal association and disassociation rates of the analyte which may be more relevant for understanding the pharmacokinetics of drug-receptor interactions.
Binding experiments were performed with the surface plasmon resonance based biosensor instrument Biacore 3000 (Biacore AB, Uppsala, Sweden) at 25° C. […] Peptides were injected at variable concentrations at 20 μL/min flow rate and binding to the HER2 receptor immobilized on the chip was monitored in real time. […]

## CSCC[C@H](NC(=O)[C@H](Cc1ccc(O)cc1)NC(=O)[C@@H]1CSSC[C@H](NC(=O)[C@@H](N)Cc2ccccc2)C(=O)N[C@@H](CC(=O)O)C(=O)NCC(=O)N[C@@H](Cc2ccccc2)C(=O)N[C@@H](Cc2ccc(O)cc2)C(=O)N[C@@H](C)C(=O)N1)C(=O)N[C@@H](CC(=O)O)C(=O)N[C@H](C(=O)N[C@@H](CCCCN)C(N)=O)C(C)C [Peptide 5] (H-FCDGFYACYMDVK-NH2; disulfide 2-8)
read-out: binding to HER2 koff
  koff: 0.000512 s⁻¹
read-out: binding to HER2 kon
  kon: 617 M⁻¹ s⁻¹

Source: patent US7998924B2, “Compounds that bind to p185 and methods of using the same” (The Trustees of The University of Pennsylvania, priority 2001, dated 2011)
